Target: T1, CCKB (Homo sapiens, UniProt P32239)
T1 construct: expressed in transfected cells; host or cells: HEK293T (inferred from the general luciferase protocol)
T1 sequence (P32239 1-447): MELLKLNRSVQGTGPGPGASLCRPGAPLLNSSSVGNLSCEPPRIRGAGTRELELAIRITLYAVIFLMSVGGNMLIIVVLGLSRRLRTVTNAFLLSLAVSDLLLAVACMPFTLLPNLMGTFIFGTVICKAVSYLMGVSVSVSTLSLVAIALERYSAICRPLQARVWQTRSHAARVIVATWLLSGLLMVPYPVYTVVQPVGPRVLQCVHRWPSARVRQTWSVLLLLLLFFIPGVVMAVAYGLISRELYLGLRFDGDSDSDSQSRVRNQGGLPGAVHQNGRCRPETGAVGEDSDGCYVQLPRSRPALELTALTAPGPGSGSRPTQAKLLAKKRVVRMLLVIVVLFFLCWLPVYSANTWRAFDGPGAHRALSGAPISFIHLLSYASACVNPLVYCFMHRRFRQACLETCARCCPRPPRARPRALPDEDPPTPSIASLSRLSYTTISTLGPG
Assay: SRE-luciferase assay, gastrin-CCKB ligand-receptor pair (positive control)
Type: cell-based
Conditions: Fig. S4

Question: How did the “stimulation of SRE-luciferase via CCKB” value turn out when gastrin was run?
Answer: normal stimulation

Source: publication PMC3873911, “A Single-Nucleotide Polymorphism of Human Neuropeptide S Gene Originated from Europe Shows Decreased Bioactivity” (PLoS ONE, 2013)
